Values of other authors, collected in patent US20260256742A1, “ANDROGEN RECEPTOR ANTAGONISTS FOR THE TREATMENT OF PATIENTS WITH BIOCHEMICAL RECURRENCE OF HORMONE SENSITIVE PROSTATE CANCER” (BAYER CONSUMER CARE AG, priority 2023, published 2026).

System: AR mutants
Conditions: cited from earlier work

CC(O)c1cc(C(=O)N[C@@H](C)Cn2ccc(-c3ccc(C#N)c(Cl)c3)n2)[nH]n1 (stereo partly shown) [Darolutamide]
activity against known AR mutants that confer resistance to other second-generation antiandrogens: activity against known AR mutants
